{"sequences": {"note": "The chains behind the UniProt entries cited, without tags or fusion partners. Where a name states a change or a piece, a line headed by the entry shows the natural chain unless it says otherwise.", "UniProt Q9NPC2": "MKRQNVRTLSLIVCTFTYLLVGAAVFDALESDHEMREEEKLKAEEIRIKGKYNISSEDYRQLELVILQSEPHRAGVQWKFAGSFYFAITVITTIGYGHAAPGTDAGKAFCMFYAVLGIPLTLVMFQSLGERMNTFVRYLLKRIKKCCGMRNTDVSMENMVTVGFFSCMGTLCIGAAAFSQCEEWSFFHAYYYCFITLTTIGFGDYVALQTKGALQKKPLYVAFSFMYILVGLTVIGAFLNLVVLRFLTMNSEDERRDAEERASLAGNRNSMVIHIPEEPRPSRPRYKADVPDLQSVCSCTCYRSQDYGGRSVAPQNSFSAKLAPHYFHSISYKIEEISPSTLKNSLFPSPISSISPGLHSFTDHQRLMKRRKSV"}, "source": "PubChem BioAssay AID492992", "about": "(Johns Hopkins Ion Channel Center, 2010)", "note": "Only a part is listed here, and it is no random draw. Calls of active or inactive are those of the source.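 Rule for the calls: active = thallium signal inhibited by more than 5 SD of the compound-free buffer control wells, on both duplicate plates; inactive = the rest.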"}
{"biological_target": "Potassium channel subfamily K member 9 (Homo sapiens) (UniProt Q9NPC2)", "test": "KCNK9 potassium channel inhibitors, confirmation, HEK293 cells, thallium flux, duplicate (AID 492992);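 note: 0% = assay buffer control wells without compound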", "conditions": "FluxOR thallium flux fluorescence, at 10 µM, hits give high values"}
{"compound": "O=P(Nc1nccs1)(c1ccccc1)c1nc2ccccc2s1", "note": "(stereo unspecified)", "inhibition": "active: 39.5%"}
